Membrane permeability of cyclic peptides

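Conditions beyond the assay type are not listed; see the original paper. The list need not hold all peptides of the study. Peptides that the database sets to -10, its floor, are left out.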

PAMPA measures passive passage through an artificial lipid membrane. Permeability is given as log10 of P in cm/s; higher (less negative) is more permeable.

structure (SMILES)	PAMPA (log10 cm/s)
CC(C)C[C@@H]1NC(=O)[C@H](CC(C)C)NC(=O)[C@H](Cc2ccccc2)NC(=O)[C@@H]2CCCN2C(=O)[C@H](C)NC(=O)[C@H](Cc2ccccc2)NC1=O	-4.94
CC(C)C[C@@H]1NC(=O)[C@H](C)NC(=O)[C@@H]2CCCN2C(=O)[C@H](C)NC(=O)[C@H](Cc2ccccc2)NC(=O)[C@H](C)NC1=O	-7.33
CC[C@@H]1C2=NN=C(O2)[C@H](Cc2ccccc2)NC(=O)[C@H](CC(C)C)NC(=O)[C@H](CC(C)C)NC(=O)[C@H](Cc2ccccc2)NC(=O)[C@@H]2CCCN12	-4.89
CC(C)C[C@@H]1NC(=O)CNC(=O)[C@@H]2CCCN2[C@H](Cc2ccccc2)C2=NN=C(O2)[C@H](Cc2ccccc2)NC(=O)CNC1=O	-5.27
CC[C@@H]1C2=NN=C(O2)[C@H](Cc2ccccc2)NC(=O)[C@H](C)NC(=O)[C@H](CC(C)C)NC(=O)[C@H](C)NC(=O)[C@@H]2CCCN12	-5.47
CC(C)C[C@@H]1NC(=O)CNC(=O)[C@@H]2CCCN2[C@H](CC(C)C)C2=NN=C(O2)[C@H](Cc2ccccc2)NC(=O)CNC1=O	-5.27
CC[C@@H]1C2=NN=C(O2)[C@H](Cc2ccccc2)NC(=O)[C@H](C)NC(=O)[C@H](CC(C)C)NC(=O)CNC(=O)[C@@H]2CCCN12	-5.96
CC[C@@H]1C2=NN=C(O2)[C@H](Cc2ccccc2)NC(=O)CNC(=O)[C@H](CC(C)C)NC(=O)[C@H](C)NC(=O)[C@@H]2CCCN12	-5.42
CC(C)C[C@@H]1NC(=O)[C@H](C)NC(=O)[C@@H]2CCCN2C(=O)[C@H](C)NC(=O)[C@H](Cc2ccccc2)NC(=O)CNC1=O	-7.13
CC(C)C[C@@H]1NC(=O)CNC(=O)[C@@H]2CCCN2C(=O)[C@H](C)NC(=O)[C@H](Cc2ccccc2)NC(=O)[C@H](C)NC1=O	-8.06

The first 2 entries again:

| structure (SMILES) | PAMPA (log10 cm/s) |
|---|---|
| CC(C)C[C@@H]1NC(=O)[C@H](CC(C)C)NC(=O)[C@H](Cc2ccccc2)NC(=O)[C@@H]2CCCN2C(=O)[C@H](C)NC(=O)[C@H](Cc2ccccc2)NC1=O | -4.94 |
| CC(C)C[C@@H]1NC(=O)[C@H](C)NC(=O)[C@@H]2CCCN2C(=O)[C@H](C)NC(=O)[C@H](Cc2ccccc2)NC(=O)[C@H](C)NC1=O | -7.33 |

Source: CycPeptMPDB (Li et al. 2023), which took these values from Frost et al. 2016, doi:10.1038/nchem.2636.